Data on 76 compounds can be found in patent US9884844B2 (priority 2012, dated 2018).

Some results are limits rather than exact numbers.

The target in this test is μ-opioid receptor (Homo sapiens, UniProt P35372). In words: cAMP assay on CHO cells expressing μ-opioid receptor (MOR assay). Conditions: read-out: MOR EC50.
As to `CNC(=O)CC1(O)C(=O)N(C2CCN([C@H]3c4cccc5cccc(c45)[C@@H]3O)CC2)c2ccccc21` (stereo partly shown), the EC50 was in the range of 100 to 1000 nM.
With `C[C@H](O)CC1(O)C(=O)N(C2CCN(C3Cc4cccc5cccc3c45)CC2)c2ccccc21` (stereo partly shown), the EC50 was greater than 5000 nM.
Regarding `CNC(=O)CC1C(=O)N(C2CCN(C3c4cccc5cccc(c45)[C@@H]3C)CC2)c2ccccc21` (stereo partly shown), the EC50 lay in the range of 100 to 1000 nM.
`CNC(=O)CC1(OC)C(=O)N(C2CCN(CCC(Oc3cc(OC)ccc3Cl)C(C)C)CC2)c2ccccc21` (stereo not shown): the EC50 was 100 to 1000 nM.
Take `CNC(=O)C[C@]1(O)C(=O)N(C2CCN([C@@H]3c4cccc5cccc(c45)[C@H]3O)CC2)c2ccccc21`: the EC50 fell in the range of 100 to 1000 nM.
As to `CNC(=O)C[C@]1(C)C(=O)N(C2CCN([C@H]3c4ccccc4CC[C@@H]3O)CC2)c2ccccc21`, the EC50 was greater than 5000 nM.
Regarding `CNC(=O)C[C@@]1(F)C(=O)N(C2CCN(C3c4cccc5cccc(c45)[C@H]3O)CC2)c2ccccc21` (single isomer, unassigned), the EC50 is greater than 5000 nM.
Regarding `CCOC(=O)CC1C(=O)N(C2CCN([C@@H]3c4cccc5cccc(c45)[C@H]3C)CC2)c2ccccc21` (stereo partly shown), the EC50 is 100 to 1000 nM.
Consider `CNC(=O)CC1C(=O)N(C2CCN(C3c4cccc5cccc(c45)C3C)CC2)c2ccccc21` (stereo not shown), for which the EC50 fell in the range of 100 to 1000 nM.
Turning to `CNC(=O)CC1(F)C(=O)N(C2CCN(C3(C)Cc4cccc5cccc3c45)CC2)c2ccccc21` (stereo not shown), the concentration for a half-maximal effect (EC50) lay in the range of 1000 to 5000 nM.
On to `CNC(=O)CC1(C)C(=O)N(C2CCN(CCC(Oc3cccc(OC)c3)C(C)C)CC2)c2ccccc21` (stereo not shown), for which the EC50 lay within 100 to 1000 nM.
`C[C@@H](O)CC1(O)C(=O)N(C2CCN(C3Cc4cccc5cccc3c45)CC2)c2ccccc21` (stereo partly shown): the EC50 was greater than 5000 nM.
Turning to `CNC(=O)CC1C(=O)N(C2CCN(C3c4cccc5cccc(c45)C3O)CC2)c2ccccc21` (stereo not shown), the EC50 was 100 to 1000 nM.
As for `COc1ccc(Cl)c(OC(CCN2CCC(N3C(=O)C(CC(=O)N(C)C)c4ccccc43)CC2)C(C)C)c1` (stereo not shown), the EC50 is 100 to 1000 nM.
For `Cc1cccc2cccc(CN3CCC(N4C(=O)C(O)(CC5CNC(=O)O5)c5ccccc54)CC3)c12` (stereo not shown) the value was 1000 to 5000 nM; for `Cn1cnc(CC2(C)C(=O)N(C3CCN(C4c5cccc6cccc(c56)C4O)CC3)c3ccccc32)n1` (stereo not shown), greater than 5000 nM.
On to `CNC(=O)CC1(OC)C(=O)N(C2CCN(CCC(Oc3cccc(OC)c3)C(C)C)CC2)c2ccccc21` (stereo not shown), for which the EC50 was greater than 5000 nM.
Take `NCC1(O)C(=O)N(C2CCN(C3Cc4cccc5cccc3c45)CC2)c2ccccc21` (stereo not shown): the EC50 was greater than 5000 nM.
As to `Cn1ncnc1CC1(C)C(=O)N(C2CCN(C3c4cccc5cccc(c45)C3O)CC2)c2ccccc21` (stereo not shown), the EC50 is greater than 5000 nM.
As to `CNCC(O)CC1(C)C(=O)N(C2CCN(C3Cc4cccc5cccc3c45)CC2)c2ccccc21` (stereo not shown), the EC50 was greater than 5000 nM.
The figure for `Cc1cccc2cccc(CN3CCC(N4C(=O)C(O)(CC(O)CN)c5ccccc54)CC3)c12` (stereo not shown) is greater than 5000 nM; for `COc1ccc(Cl)c(OC(CCN2CCC(N3C(=O)C(O)(CC(=O)N(C)C)c4ccccc43)CC2)C(C)C)c1` (stereo not shown) it is greater than 5000 nM; for `CN1CC2(OC1=O)C(=O)N(C1CCN(C3Cc4cccc5cccc3c45)CC1)c1ccccc12` (stereo not shown) it is 100 to 1000 nM.
On to `CNC(=O)CC1C(=O)N(C2CCN(CCC(Oc3cc(C)ccc3Cl)C(C)C)CC2)c2ccccc21` (stereo not shown), for which the EC50 fell in the range of 100 to 1000 nM.
The figure for `CNC(=O)CC1(O)C(=O)N(C2CCN(C3Cc4cccc5ccnc3c45)CC2)c2ccccc21` (stereo not shown) is greater than 5000 nM; for `CNC(=O)C[C@@]1(F)C(=O)N(C2CCN(C3c4cccc5cccc(c45)[C@@H]3O)CC2)c2ccccc21` (single isomer, unassigned) it is greater than 5000 nM.
For `COCCC1(O)C(=O)N(C2CCN([C@@H]3Cc4cccc5cccc3c45)CC2)c2ccccc21` (stereo partly shown) the value was greater than 5000 nM; for `CN1CC2(C(=O)N(C3CCN(C4Cc5cccc6cccc4c56)CC3)c3ccccc32)N(C)C1=O` (stereo not shown), 100 to 1000 nM.
With `CC1(CC(O)CO)C(=O)N(C2CCN([C@@H]3Cc4cccc5cccc3c45)CC2)c2ccccc21` (stereo partly shown), the EC50 was greater than 5000 nM.
Consider `CN(C)C(=O)CC1(C)C(=O)N(C2CCN(C3Cc4cccc5cccc3c45)CC2)c2ccccc21` (stereo not shown), for which the EC50 was in the range of 100 to 1000 nM.
With `CN(C)C(=O)CC1C(=O)N(C2CCN(C3Cc4cccc5cccc3c45)CC2)c2ccccc21` (stereo not shown), the EC50 is 100 to 1000 nM.
For `CC1(Cc2ncco2)C(=O)N(C2CCN(C3c4cccc5cccc(c45)C3O)CC2)c2ccccc21` (stereo not shown) the value was greater than 5000 nM; for `CNC(=O)C[C@@]1(O)C(=O)N(C2CCN([C@@H]3c4cccc5cccc(c45)[C@H]3O)CC2)c2ccccc21`, 1000 to 5000 nM; for `CNC(=O)CC1(O)C(=O)N(C2CCN(C3Cc4cccc5c4C3N(C)CC5)CC2)c2ccccc21` (stereo not shown), greater than 5000 nM.
Take `CN(C)C(=O)CC1(C)C(=O)N(C2CCN([C@H]3c4cccc5cccc(c45)[C@@H]3O)CC2)c2ccccc21` (stereo partly shown): the EC50 was 100 to 1000 nM.
For the compound `CC1(CC(O)CN)C(=O)N(C2CCN(C3Cc4cccc5cccc3c45)CC2)c2ccccc21` (stereo not shown), the EC50 was in the range of 100 to 1000 nM.
Regarding `CC1(Cc2ncco2)C(=O)N(C2CCN([C@@H]3Cc4cccc5cccc3c45)CC2)c2ccccc21` (stereo partly shown), the EC50 was greater than 5000 nM.
In the case of `CNC(=O)OC1C(=O)N(C2CCN(C3Cc4cccc5cccc3c45)CC2)c2ccccc21` (stereo not shown), the EC50 lay within 100 to 1000 nM.
As to `CNC(=O)C[C@]1(C)C(=O)N(C2CCN([C@H]3CCCc4ccccc43)CC2)c2ccccc21`, the EC50 is 100 to 1000 nM.
Consider `CNC(=O)C[C@]1(O)C(=O)N(C2CCN([C@H]3c4cccc5cccc(c45)[C@@H]3O)CC2)c2ccccc21`, for which the 50% effective concentration (EC50) was 100 to 1000 nM.
On to `CN(C)C(=O)CC1(O)C(=O)N(C2CCN(C3Cc4cccc5cccc3c45)CC2)c2ccccc21` (stereo not shown), for which the EC50 is 1000 to 5000 nM.
For `Cc1cccc2cccc(CN3CCC(N4C(=O)C(C)(CC5CNC(=O)O5)c5ccccc54)CC3)c12` (stereo not shown), the EC50 was in the range of 100 to 1000 nM.
For `CNC(=O)CC1(O)C(=O)N(C2CCN([C@H]3c4ccccc4CC[C@@H]3O)CC2)c2ccccc21` (stereo partly shown) the value was 100 to 1000 nM.
`NCC(O)CC1(O)C(=O)N(C2CCN(C3Cc4cccc5cccc3c45)CC2)c2ccccc21` (stereo not shown): the EC50 lay in the range of 100 to 1000 nM.
Take `NC[C@@H](O)CC1(O)C(=O)N(C2CCN(C3Cc4cccc5cccc3c45)CC2)c2ccccc21` (single isomer, unassigned): the EC50 lay in the range of 100 to 1000 nM.
As for `NC(=O)CC1(O)C(=O)N(C2CCN(C3Cc4cccc5cccc3c45)CC2)c2ccccc21` (stereo not shown), the EC50 was 100 to 1000 nM.
For the compound `O=C1NCC2(O1)C(=O)N(C1CCN(C3Cc4cccc5cccc3c45)CC1)c1ccccc12` (stereo not shown), the EC50 lay within 100 to 1000 nM.
Regarding `CNC(=O)CC1(O)C(=O)N(C2CCN(Cc3cccc4cccc(C)c34)CC2)c2ccccc21` (stereo not shown), the 50% effective concentration (EC50) fell in the range of 1000 to 5000 nM.
The figure for `CN1CC2(CC1=O)C(=O)N(C1CCN(C3Cc4cccc5cccc3c45)CC1)c1ccccc12` (stereo not shown) is 100 to 1000 nM; for `O=C1N(C2CCN(C3Cc4cccc5cccc3c45)CC2)c2ccccc2C1(O)CCO` (stereo not shown) it is greater than 5000 nM; for `O=C1NCC(CC2C(=O)N(C3CCN(C4Cc5cccc6cccc4c56)CC3)c3ccccc32)O1` (stereo not shown) it is 100 to 1000 nM.
For the compound `CC1(Cc2ncn[nH]2)C(=O)N(C2CCN(C3c4cccc5cccc(c45)C3O)CC2)c2ccccc21` (stereo not shown), the EC50 was greater than 5000 nM.
The figure for `CNC(=O)C[C@@]1(O)C(=O)N(C2CCN([C@H]3c4cccc5cccc(c45)[C@@H]3O)CC2)c2ccccc21` is 100 to 1000 nM; for `CN(C)CC(O)CC1(C)C(=O)N(C2CCN(C3Cc4cccc5cccc3c45)CC2)c2ccccc21` (stereo not shown) it is greater than 5000 nM; for `O=C1NCCC12C(=O)N(C1CCN(C3Cc4cccc5cccc3c45)CC1)c1ccccc12` (stereo not shown) it is 100 to 1000 nM.
For `CN(C)C(=O)CC1(O)C(=O)N(C2CCN([C@H]3c4cccc5cccc(c45)[C@@H]3O)CC2)c2ccccc21` (stereo partly shown), the 50% effective concentration (EC50) fell in the range of 100 to 1000 nM.
For `NC[C@H](O)CC1(O)C(=O)N(C2CCN(C3Cc4cccc5cccc3c45)CC2)c2ccccc21` (single isomer, unassigned) the value was 100 to 1000 nM; for `CNC(=O)CC1(C)C(=O)N(C2CCN([C@H]3c4cccc5cccc(c45)[C@]3(C)O)CC2)c2ccccc21` (stereo partly shown), 100 to 1000 nM; for `O=C1N(C2CCN(C3Cc4cccc5cccc3c45)CC2)c2ccccc2C1(F)CC(O)CO` (stereo not shown), greater than 5000 nM.
For `COC(=O)NCC1(O)C(=O)N(C2CCN([C@@H]3c4cccc5cccc(c45)[C@H]3O)CC2)c2ccccc21` (stereo partly shown), the EC50 was greater than 5000 nM.
With `CN1CC2(CC1=O)C(=O)N(C1CCN([C@H]3c4cccc5cccc(c45)[C@@H]3O)CC1)c1ccccc12` (stereo partly shown), the half-maximal effective concentration (EC50) fell in the range of 100 to 1000 nM.
Take `CNC(=O)CC1(O)C(=O)N(C2CCN(C3c4cccc5cccc(c45)C3(C)C)CC2)c2ccccc21` (stereo not shown): the EC50 is 100 to 1000 nM.
For `CC(=O)OC1C(=O)N(C2CCN(C3Cc4cccc5cccc3c45)CC2)c2ccccc21` (stereo not shown), the EC50 was 100 to 1000 nM.
Consider `CNC(=O)CC1(O)C(=O)N(C2CCN(CCC(Oc3cc(OC)ccc3Cl)C(C)C)CC2)c2ccccc21` (stereo not shown), for which the EC50 lay within 100 to 1000 nM.
With `COC(=O)NCC1(O)C(=O)N(C2CCN(C3Cc4cccc5cccc3c45)CC2)c2ccccc21` (stereo not shown), the half-maximal effective concentration (EC50) is greater than 5000 nM.
In the case of `CNC(=O)CC1(F)C(=O)N(C2CCN([C@H]3c4cccc5cccc(c45)[C@@H]3O)CC2)c2ccccc21` (stereo partly shown), the EC50 was greater than 5000 nM.
As to `C[C@]1(C[C@H](O)CN)C(=O)N(C2CCN([C@@H]3Cc4cccc5cccc3c45)CC2)c2ccccc21`, the EC50 was greater than 5000 nM.
For `CNC(=O)C[C@@]1(C)C(=O)N(C2CCN([C@@H]3c4ccccc4CC[C@H]3O)CC2)c2ccccc21` the value was greater than 5000 nM; for `C[C@@]1(C[C@H](O)CN)C(=O)N(C2CCN([C@@H]3Cc4cccc5cccc3c45)CC2)c2ccccc21`, greater than 5000 nM.
In the case of `O=C(/C=C1/C(=O)N(C2CCN(C3Cc4cccc5cccc3c45)CC2)c2ccccc21)N1CCCCC1` (stereo not shown), the EC50 is greater than 5000 nM.
`COCCC1(O)C(=O)N(C2CCN([C@H]3c4cccc5cccc(c45)C3O)CC2)c2ccccc21` (stereo partly shown): the EC50 was greater than 5000 nM.
Consider `CNC(=O)CC1C(=O)N(C2CCN(Cc3cccc4cccc(C)c34)CC2)c2ccccc21` (stereo not shown), for which the concentration for a half-maximal effect (EC50) is 1000 to 5000 nM.
Consider `CNC(=O)C[C@@]1(C)C(=O)N(C2CCN([C@H]3c4ccccc4CC[C@@H]3O)CC2)c2ccccc21`, for which the EC50 was greater than 5000 nM.
As to `Cc1cccc2cccc(CN3CCC(N4C(=O)C(CC5CNC(=O)O5)c5ccccc54)CC3)c12` (stereo not shown), the EC50 was in the range of 100 to 1000 nM.
Turning to `O=C1N(C2CCN(C3Cc4cccc5cccc3c45)CC2)c2ccccc2C1(O)Cc1ncco1` (stereo not shown), the EC50 was greater than 5000 nM.
As for `O=C1C(CC(O)CN(Cc2ccccc2)Cc2ccccc2)c2ccccc2N1C1CCN(C2Cc3cccc4cccc2c34)CC1` (stereo not shown), the EC50 was greater than 5000 nM.

In general, EC50 refers to the midpoint of the concentration-response curve.
